The values that follow come from patent US10226464B2, “Small molecule NF-κB inhibitors” (ImmuneTarget, Inc., priority 2015, dated 2019).

Chains of the proteins cited; added tags and fusions are not shown.
UniProt Q04864, whole entry: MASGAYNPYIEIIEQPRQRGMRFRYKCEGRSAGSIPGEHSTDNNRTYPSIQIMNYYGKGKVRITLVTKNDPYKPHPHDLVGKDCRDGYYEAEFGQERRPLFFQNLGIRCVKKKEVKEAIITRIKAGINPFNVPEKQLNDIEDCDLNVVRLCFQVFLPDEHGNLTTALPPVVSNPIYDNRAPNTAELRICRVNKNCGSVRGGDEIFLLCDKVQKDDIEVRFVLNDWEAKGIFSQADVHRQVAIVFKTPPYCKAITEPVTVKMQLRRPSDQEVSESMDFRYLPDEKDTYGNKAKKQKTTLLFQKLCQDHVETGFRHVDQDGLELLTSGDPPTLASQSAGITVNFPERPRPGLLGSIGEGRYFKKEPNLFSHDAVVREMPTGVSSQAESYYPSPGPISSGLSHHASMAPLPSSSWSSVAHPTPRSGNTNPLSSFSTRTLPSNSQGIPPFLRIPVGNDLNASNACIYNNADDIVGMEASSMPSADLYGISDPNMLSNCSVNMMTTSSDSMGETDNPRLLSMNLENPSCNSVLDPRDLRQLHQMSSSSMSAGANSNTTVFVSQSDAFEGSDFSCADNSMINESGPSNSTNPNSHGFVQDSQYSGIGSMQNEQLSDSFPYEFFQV

One experiment addresses c-Rel protein (Homo sapiens (Human), UniProt Q04864). In words: Electrophoretic Mobility Shift Assay (EMSA), Rel/NF-κB DNA binding inhibition. The conditions noted are these: read-out: EMSA IC50; 10 nM c-Rel protein, phosphor-labeled CD28RE oligonucleotide. Background: Mobility shift assays separate free from complexed probe on a gel.
For another experiment, the system named is NF-κB. Briefly: NF-κB GFP Assay (NFκB/Jurkat/GFP transcriptional reporter cell line). The note with it: read-out: NF-KB GFP IC50; NF-κB/Jurkat/GFP reporter cells, TNF-α 5 ng/ml, 24 hours.

As usually defined, the IC50 is the concentration that inhibits the measured activity by half. As to `O=C(O)CCCCOc1ccc2cc3c(=O)[nH]c(=O)nc-3oc2c1Cl`, the IC50 was less than 5 µM at c-Rel protein and less than 20 µM in the experiment with NF-κB.
